Tested on: P. yoelii sporozoites
Test: Inhibition of liver stage development assay (ILSDA), mouse hepatocytes infected with P. yoelii sporozoites
Assay type: cell-based
Settings: sera of immunized mice, dilution not stated

CC(C)C[C@H](NC(=O)[C@@H](NC(=O)[C@H](Cc1c[nH]c2ccccc12)NC(=O)[C@H](C)NC(=O)[C@H](C)NC(=O)[C@@H](NC(=O)[C@H](CC1CCCCC1)NC(=O)[C@H](CCCCN)NC(=O)[C@@H](C)N)C(C)C)[C@@H](C)O)C(=O)N[C@@H](CCCCN)C(=O)N[C@@H](C)C(=O)N[C@H](C)C(=O)N[C@@H](CC(N)=O)C(=O)N[C@@H](C)C(=O)N[C@@H](CC(N)=O)C(=O)N1CCC[C@H]1C(=O)N[C@@H](CC(N)=O)C(=O)N[C@@H](C)C(=O)N[C@@H](CC(N)=O)C(=O)N1CCC[C@H]1C(=O)N[C@@H](CC(N)=O)C(=O)N[C@@H](C)C(=O)N[C@@H](CC(N)=O)C(=O)N1CCC[C@H]1C(=O)N[C@@H](CC(N)=O)C(=O)N[C@@H](C)C(=O)N[C@@H](CC(N)=O)C(=O)N1CCC[C@H]1C(=O)NCC(=O)NCC(=O)N[C@@H](CO)C(=O)O [PADRE ®-PfB, aKXVAAWTLKAa(NANP)4GGS]
inhibition of P. yoelii sporozoite invasion and development in murine hepatocytes: no significant effect

Source: patent publication US20050049197A1, “Induction of immune response against desired determinants” (Epimmune Inc., priority 1993, published 2005)
